# Measurements from patent publication US8344177B2, “Albumin binding molecules and uses thereof” (Philochem AG, priority 2006, dated 2013).
# The chains behind the UniProt entries cited, without tags or fusion partners. Residues count along the entry.
# UniProt P02768, 25-609 limits assumed: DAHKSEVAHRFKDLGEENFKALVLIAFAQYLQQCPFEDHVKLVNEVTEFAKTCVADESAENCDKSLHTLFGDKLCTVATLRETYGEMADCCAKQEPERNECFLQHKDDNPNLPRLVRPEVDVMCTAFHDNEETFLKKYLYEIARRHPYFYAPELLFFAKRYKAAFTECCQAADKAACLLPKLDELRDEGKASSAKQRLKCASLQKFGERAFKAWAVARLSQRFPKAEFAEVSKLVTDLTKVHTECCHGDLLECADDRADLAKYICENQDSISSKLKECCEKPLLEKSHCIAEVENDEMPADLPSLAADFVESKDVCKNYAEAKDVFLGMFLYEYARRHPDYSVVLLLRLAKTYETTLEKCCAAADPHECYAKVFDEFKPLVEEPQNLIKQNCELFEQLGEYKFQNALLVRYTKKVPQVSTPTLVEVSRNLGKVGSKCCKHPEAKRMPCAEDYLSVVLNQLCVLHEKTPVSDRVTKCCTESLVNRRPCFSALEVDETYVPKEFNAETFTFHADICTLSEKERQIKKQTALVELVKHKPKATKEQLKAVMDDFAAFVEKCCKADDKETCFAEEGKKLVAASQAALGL
# UniProt P07724, 25-608 limits assumed: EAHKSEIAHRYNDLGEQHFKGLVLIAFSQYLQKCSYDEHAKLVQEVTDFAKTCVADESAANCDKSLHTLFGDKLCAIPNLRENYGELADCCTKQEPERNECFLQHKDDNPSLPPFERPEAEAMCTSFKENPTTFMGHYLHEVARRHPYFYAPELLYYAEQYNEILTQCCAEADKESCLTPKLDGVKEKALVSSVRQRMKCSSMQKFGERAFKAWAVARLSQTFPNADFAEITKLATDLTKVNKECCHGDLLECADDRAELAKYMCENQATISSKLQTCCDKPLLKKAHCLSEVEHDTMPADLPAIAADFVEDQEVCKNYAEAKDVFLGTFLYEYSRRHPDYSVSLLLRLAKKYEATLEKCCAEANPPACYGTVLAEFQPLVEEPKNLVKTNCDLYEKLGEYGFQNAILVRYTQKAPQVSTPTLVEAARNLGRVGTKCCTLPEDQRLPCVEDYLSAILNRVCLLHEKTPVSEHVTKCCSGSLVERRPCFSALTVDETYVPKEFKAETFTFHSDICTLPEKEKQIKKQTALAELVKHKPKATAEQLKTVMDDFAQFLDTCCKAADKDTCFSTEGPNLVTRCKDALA
# UniProt P02770, 25-608 limits assumed: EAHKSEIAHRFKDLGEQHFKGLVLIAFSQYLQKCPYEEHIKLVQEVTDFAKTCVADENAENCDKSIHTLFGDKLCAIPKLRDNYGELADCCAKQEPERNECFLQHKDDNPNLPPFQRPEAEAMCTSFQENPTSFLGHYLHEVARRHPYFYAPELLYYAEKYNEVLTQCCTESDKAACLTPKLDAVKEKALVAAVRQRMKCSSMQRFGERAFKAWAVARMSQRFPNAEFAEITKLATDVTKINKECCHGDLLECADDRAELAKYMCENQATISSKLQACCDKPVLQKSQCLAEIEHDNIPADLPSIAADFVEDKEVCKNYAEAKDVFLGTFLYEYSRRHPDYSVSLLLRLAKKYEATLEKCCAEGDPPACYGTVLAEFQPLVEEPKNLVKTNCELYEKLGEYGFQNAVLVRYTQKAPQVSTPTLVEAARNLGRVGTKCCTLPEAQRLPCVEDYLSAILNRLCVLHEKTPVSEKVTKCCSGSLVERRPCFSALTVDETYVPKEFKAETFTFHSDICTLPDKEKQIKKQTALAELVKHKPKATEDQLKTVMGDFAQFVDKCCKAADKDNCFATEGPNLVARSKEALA
# Assays:
# [1] = molecular target: T1, human serum albumin (Homo sapiens, UniProt P02768); assay: Isothermal titration calorimetry (ITC), human serum albumin
# Experimental: (§1) The binding experiments by ITC were performed following the procedure of reference 34. 1×2 μl, followed by 29×20 μl, of 428-derivative were injected into 1.8 ml of human serum albumin. All ITC measurements were carried out at concentrations of 50-100 μM protein and 0.5-1 mM conjugate, in PBS, 2% DMSO at 37° C. […] This confirmed the desired characteristics of a universal “chemical handle” that may used to conjugate a wide range of agents to the compounds of the invention. 428-ε-Lys-α-NHAc also bound the serum albumin of other species. Murine serum albumin was recognised with similar affinity (Kd=3.7 μM and 3.6 μM in two separate measurements) whereas the affinity towards rat serum albumin was 6× lower (Kd=28 μM).
# (§2) Generally, isothermal titration calorimetry measurements were performed using a VP-ITC instrument (Microcal). Fatty acid free HSA (Sigma, A1887) or fatty acid free MSA (A1056) was dissolved in PBS, 2% DMSO and dialyzed against the identical buffer. The concentration of protein for the experiment varied between 30 μM to 1 mM. The experiments were generally performed by titrating serum albumin with the binding molecules. HSA or MSA was titrated with a solution of binding molecule roughly ten fold higher in concentration than the protein solution in PBS, 2% DMSO at 37° C. Typically, titrations were performed until a ratio of 2:1 of ligand to binding sites on protein was reached. Ligands were dissolved in the dialysis buffer. The precise concentration of binding molecule was determined by HPLC/UV. The resulting titration curves were processed and fitted with the Origin 7 software (Microcal) to obtain Kd and ΔH values.
# [2] = molecular target: HSA (Homo sapiens, UniProt P02768); assay: Fluorescence polarisation with increasing amounts of HSA; settings: read-out: dissociation constant, 100 nM compound, PBS, 1 h at 25° C.
# Experimental: 100 nM of 428-D-Lys-FAM, 622-D-Lys-FAM and, for comparison, of fluorescein and of phenethylamine-FAM were incubated with increasing amounts of HSA in PBS for 1 h at 25° C. The fluorescence polarization was determined by excitation at 485 nm and measurement at 535 nm.
# [3] = Pharmacokinetic profiles of fluorescein and FAM derivatives in mouse (LC/MS/MS of plasma); format: in vivo, 129SvPas mice; settings: mice, 20 nmol into the tail vein
# Experimental: In a further in vivo experiment, the pharmacokinetic properties of fluorescein, phenethylamine-FAM, 428-D-Lys-FAM, and 622-D-Lys-FAM were measured and compared. Clearance profiles for the four compounds differed distinctly (FIG. 14).
# Pharmacokinetic analyses were performed under the Project Licenses 198/2005 of the Veterinaramt des Kantons Zürich (issued to Dario Neri). 129SvPas mice were injected into the tail vein with 20 nmol of fluorescein, Phenethylamine-FAM, 428-D-Lys-FAM, or 622-D-Lys-FAM dissolved in 100 μl of 100 mM Tris/HCl, 105 mM NaCl, pH 8.2 (2 mice each). 20-30 μl blood samples were taken from the vena saphena with EDTA coated capillaries (Sarstedt) 1, 5, 15, 30, 60, 120, 240, 360, 480 and 1440 minutes after injection and centrifuged. 5-10 μl of plasma were mixed with 40 μl of 0.1% trifluoroacetic acid and 200 μl of ethanol and incubated on ice for 1 hour. After one hour the samples were centrifuged to remove the precipitated proteins. The supernatant was dried under vacuum and subsequently redissolved in 50 μl of DMSO/H2O. 40 μl were injected into an LC/MS/MS system (Micromass Quattro micro API) and run on a linear gradient from in 0.1% HCOOH from 5% to 95% acetonitrile in ten minutes on a Waters XTerra MS C18 column ([…], 1×50 mm) while observing the daughter ions with m/z of 287.1 and 202.1 of the parent ion 333.1 for fluorescein, with m/z of 287.3 and 332.3 of the parent ion 480.2 for Phenethylamine-FAM, with m/z of 287.3, 377.2 and 505.2 of the parent ion 777.1 for 428-D-Lys-FAM, and with m/z of 287.3 and 505.4 of the parent ion 651.3 for 622-D-Lys-FAM. Comparing the area under the curve with a previously obtained dilution series of fluorescein and 428-D-Lys-FAM in plasma with identical sample preparation allowed the quantification of the molecules.
# [4] = molecular target: Murine serum albumin (Mus musculus, UniProt P07724); assay: Isothermal titration calorimetry (ITC), murine serum albumin; settings: read-out: dissociation constant Kd, two separate measurements
# Experimental: as §1
# as §2, with “Typically, titrations were performed until a ratio of 2:1 of ligand to binding sites on protein was reached. Ligands were dissolved in the dialysis buffer.” left out, “The resulting titration curves were processed and fitted with the Origin 7 software (Microcal) to obtain Kd and ΔH values.” left out
# [5] = molecular target: rat serum albumin (Rattus norvegicus, UniProt P02770); assay: Isothermal titration calorimetry (ITC), rat serum albumin
# Experimental: as §1
# [6] = Pharmacokinetic profile of 428-ε-Lys-α-NH-FITC vs. fluorescein in mice (LC/MS/MS of serum); format: in vivo, 129SV mice; settings: injection of 100 μl of 170 μM solution
# Experimental: The pharmacokinetic properties of conjugates of the invention are evaluated by injection of both said conjugate and the corresponding unconjugated agent (i.e. the agent that has not been modified by a compound of the invention) into mice and subsequent sampling of the conjugate and agent concentrations. Conjugate and agent concentrations are determined by Liquid Chromatography/Mass Spectrometry/Mass Spectrometry (LC-MS/MS) according to techniques known in the art.
# 100 μl of a 170 μM solution of fluorescein and of 428-ε-Lys-α-NH-FITC were injected into 2 pairs of immunocompetent 129SV mice.
# [7] = molecular target: T1, human serum albumin; assay: Electro-mobility shift assay; settings: 10 μM compound preincubated with 100 μM HSA or human serum (diluted 1/5)
# Experimental: An electro-mobility shift assay was carried out following the general protocol of reference 35. 10 μM fluorescein or 10 μM 428-ε-Lys-α-NH-FITC were each preincubated in 10 ul, in PBS buffer, with either 100 μM human serum albumin or human serum (diluted 1/5). The assay incubation time was 30 min. Polyacrylamide gel electrophoresis, was carried out using a 20%-acrylamide gel preparation, TBE (Tris/Borate/EDTA) buffer, and a sample loading volume of 10 ul in 5% sucrose. The running conditions were 180 V/40 min.
# [8] = read-out: dissociation constant Kd, PBS, 2% DMSO, 37° C., to a single binding site on human serum albumin
smiles,measurement,setting,value
CC(=O)NCCCC[C@@H](NC(=O)CCCCCCNC(=O)CCCc1ccc(I)cc1)C(=O)O,Kd,[1]; [8],8 µM
CCCC(=O)NCCCC[C@@H](NC(=O)CCCCCCNC(=O)CCCc1ccc(I)cc1)C(=O)O,Kd,[1]; [8],8 µM
O=C(O)CCCCCCNC(=O)CCCc1ccc(I)cc1,Kd,"[1]; read-out: dissociation constant Kd, PBS, 2% DMSO, 37° C., to two binding sites comparable in affinity",3 µM
O=C(CCCc1ccccc1)NCCCC[C@@H](NC(=O)c1ccc2c(c1)C(=O)OC21c2ccc(O)cc2Oc2cc(O)ccc21)C(=O)O,Kd,[2],6.6 µM
same,"t1/2, α",[3],5.3 min
same,"t1/2, β",[3],1.67 h
same,α-phase,[3],98%
CC(=O)N[C@H](CCCCNC(=O)CCCc1ccc(I)cc1)C(=O)O,Kd,[4],3.7 µM and 3.6 µM
same,"affinity towards rat serum albumin, fold lower than for human/murine serum albumin",[5],6 ×
same,Kd,[5]; read-out: dissociation constant Kd,28 µM
CCCC(=O)N[C@H](CCCCNC(=O)CCCc1ccc(I)cc1)C(=O)O,Kd,[1]; [8],5.5 µM
O=C(CCCc1ccc(I)cc1)NCCCC[C@@H](NC(=S)Nc1ccc2c(c1)C(=O)OC21c2ccc(O)cc2Oc2cc(O)ccc21)C(=O)O,"t1/2,α (serum, biphasic clearance)",[6],0.375 h
same,"t1/2,β (serum, biphasic clearance)",[6],5.67 h
same,binding and specificity in electro-mobility shift,[7],demonstrated the binding of 428-ε-Lys-α-NH-FITC and its specificity for HSA
same,Kd,"[1]; read-out: dissociation constant Kd, PBS, 2% DMSO, 37° C.",6.5 µM

# Values joined by “and” are separate entries in the source; they are usually repeats but may differ in a detail not shown here. Equal entries are not always repeated. Where two headings read alike, the source gives them in different places.
